Measured values reported in paper PMC2913404 (Neurobiology of disease, 2010).

Sequences of proteins named here, by UniProt entry; tags and fusion partners are left off. Residues count along the entry.
UniProt P05067, 672-711 limits assumed: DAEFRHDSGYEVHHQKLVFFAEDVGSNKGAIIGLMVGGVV
UniProt P05067, 672-713 limits assumed: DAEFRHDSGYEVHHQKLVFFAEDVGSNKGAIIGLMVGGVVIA

Columns and labels:
Aβ1–40 amyloid = Aβ1–40 amyloid (Homo sapiens, UniProt P05067); assay: Peptide binding to immobilized Aβ1–40 amyloid; conditions: ELISA, same concentration range as SDPM1 (Fig 1A)
Aβ1–42 amyloid = Aβ1–42 amyloid (Homo sapiens, UniProt P05067); assay: Peptide binding to immobilized Aβ1–42 amyloid; conditions: ELISA, Aβ1–42 amyloid (Fig 1A)
SDPM1 / SDPM2 peptide = assay: Serum antibody titer to SDPM1/SDPM2 after immunization; format: in vivo, mouse; conditions: young, without adjuvant (S2A)

Sequence: DWGKGGRWRLWPGASGKTEA [SDPM2]
- binding to Aβ1–40 amyloid (Aβ1–40 amyloid): minimal binding to Aβ1–40 amyloid
- concentration above which binding was significant (Aβ1–42 amyloid): above 1 µM
- SDPM1 titers relative to SDPM2 titers (SDPM1 / SDPM2 peptide): showed the opposite trend
